{"source": "patent US6635432B1", "about": "“Peptide potentiation of acid-sensory ion channel in pain” (University of Iowa Research Foundation, priority 2000, dated 2003)", "target": "T1, ASICα (Homo sapiens, UniProt P78348)", "T1 sequence (P78348 1-528)": "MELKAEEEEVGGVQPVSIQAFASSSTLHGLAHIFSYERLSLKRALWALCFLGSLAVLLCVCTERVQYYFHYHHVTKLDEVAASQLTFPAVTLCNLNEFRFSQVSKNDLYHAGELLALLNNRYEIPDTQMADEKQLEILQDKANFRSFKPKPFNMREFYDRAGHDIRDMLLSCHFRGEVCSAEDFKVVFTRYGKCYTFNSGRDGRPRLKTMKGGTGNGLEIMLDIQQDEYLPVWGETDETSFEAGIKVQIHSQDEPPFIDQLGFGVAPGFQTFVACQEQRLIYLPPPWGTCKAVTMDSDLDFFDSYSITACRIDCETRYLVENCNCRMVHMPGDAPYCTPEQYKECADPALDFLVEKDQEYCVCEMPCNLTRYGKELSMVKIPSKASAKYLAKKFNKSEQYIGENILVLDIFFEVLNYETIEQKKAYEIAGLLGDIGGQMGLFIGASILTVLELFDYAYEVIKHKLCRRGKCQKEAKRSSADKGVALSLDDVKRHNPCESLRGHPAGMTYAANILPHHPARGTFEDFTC", "experiment": "Two-electrode voltage-clamp of Xenopus oocytes expressing ASICα", "format": "cell-based", "set-up": "expressed in transfected cells; host or cells: Xenopus laevis oocytes (nuclear injection of pMT3 plasmid)", "excerpt": "Human ASICα was cloned from brain polyA RNA. Rat ASICβ and mouse DRASIC were cloned from DRG RNA. Human BNC1 was cloned as described in Price et al. (1996)(Price, M. P., Snyder, P. M., and Welsh, M. J. (1996). Cloning and expression of a novel human brain Na^+ channel. J Biol Chem 271, 7879-7882). Constructs were cloned into pMT3 for expression.\nExpression of the cDNA constructs in Xenopus oocytes was accomplished by injection of plasmid DNA into the nucleus of defolliculated albino Xenopus laevis oocytes (Nasco, Fort Atkinson, Wis.) as described previously (Adams, C. M., Snyder, P. M., Price, M. P., and Welsh, M. J. (1998). Protons activate brain Na^+ channel 1 by inducing a conformational change that exposes a residue associated with neurodegeneration. J Biol Chem 273, 30204-30207). Plasmids were injected at concentrations of 100 ng/μl for most experiments. Oocytes were incubated in modified Barth's solution at 18° C. for 12-26 hr after injection. Cells injected with DRASIC were allowed to incubate for 24-48 hr before analysis.\nWhole-cell currents in oocytes were measured using a two-electrode voltage-clamp as previously described (Adams, et al. (1998)). Oocytes were bathed in frog Ringers solution containing, in mM: 116 NaCl, LiCl or KCl, 0.4 CaCl2, MgCl2, 5 4-(2-hydroxyethyl)-1-piperazineethanesulfonic acid (HEPES), pH 7.4. Acidic solutions were buffered with 5 mM 2-(4-morpholino)-ethanesulfonic acid (MES) instead of HEPES. Membrane voltage was held at −60 mV unless otherwise noted. Most peptides and naloxone were obtained from Sigma Chemical Co. (St. Louis, Mont.) and were added to the extracellular solution. The peptide FRRFamide was synthesized by Research Genetics (Huntsville, Ala.)."}
{"smiles": "CSCC[C@H](NC(=O)[C@@H](N)Cc1ccccc1)C(=O)N[C@@H](CCCNC(=N)N)C(=O)N[C@@H](Cc1ccccc1)C(N)=O", "note": "[FMRFamide, Phe-Met-Arg-Phe amide]", "values": [{"measurement": "EC50", "value": "~33", "unit": "µM"}, {"measurement": "pH sensitivity of FMRFamide-induced sustained current", "setting": "FMRFamide 50 μM", "value": "showed sensitivity to a broader pH range compared to the transient current"}, {"measurement": "effect on pH sensitivity of the transient current", "setting": "FMRFamide 50 μM added prior to acidification", "value": "did not alter the pH sensitivity of the transient current"}, {"measurement": "sustained current on acidification after washout of FMRFamide", "setting": "FMRFamide applied at pH 7.4, then 80 sec wash at pH 7.4", "value": "acidification generated no sustained current"}, {"measurement": "Ca2+ conductance of the sustained current", "setting": "FMRFamide-induced sustained current", "value": "did not show Ca^2+ conductance"}, {"measurement": "channel closure on return to pH 7.4 in continued presence of FMRFamide", "setting": "oocytes", "value": "did not prevent channel closure when pH was returned to 7.4"}, {"measurement": "dependence of sustained current on sequence of FMRFamide and acid addition", "setting": "oocytes, FMRFamide 50 or 100 μM, pH 5", "value": "The largest sustained currents required FMRFamide addition before lowering the extracellular pH"}, {"measurement": "effect on H+-gated ASICα current (inactivation, sustained current)", "setting": "oocytes, pH 5, agents 50 μM (A18Famide 25 μM), added prior to and during acidification", "value": "slowing of inactivation and the appearance of a sustained current at pH 5"}, {"measurement": "effect on I-V relationship of the peak current", "setting": "pH 5, FMRFamide 50 μM", "value": "not altered"}, {"measurement": "slope conductivity sequence of the sustained current", "setting": "pH 5, FMRFamide 50 μM", "value": "Na^+≧Li^+>K^+"}, {"measurement": "effect of peptide alone on channel", "setting": "pH 7.4, oocytes", "value": "had no effect on either channel"}, {"measurement": "persistence of sustained current after removal of FMRFamide", "setting": "pH reduced while simultaneously removing FMRFamide, 80 sec pH 5 wash", "value": "the sustained current persisted throughout an 80 sec pH 5 wash and beyond"}]}
